# In patent US6380254B2, “Method and composition for treating and preventing pathogenic effects caused by intracellular calcium overload” (Leigh Biotechnology, Inc., priority 1994, dated 2002):
# Tested on: glycogen phosphorylase a
# Experiment: Intracellular calcium activity in post-anaerobic hepatocytes, expressed as glycogen phosphorylase a activity
# Assay type: cell-based, rat
# Conditions: mmols of PO^−3 liberated from glucose-1-phosphate per 1 million viable post-anaerobic cells; chlorpromazine 25 μM, glycine 20 mM, mixture less than 5 mM total; untreated 165.5
# Protocol: Kinase is stimulated by increased intracellular calcium concentration via calmodulin. […] Expt. Thera., Vol. 238, pp. 186-191, 1986. Hepatocytes were incubated anaerobically for 90 minutes, then washed and resuspended in fresh medium containing either no additives (for the untreated cells), chlorpromazine (25 μM), glycine (20 mM or 150 mg per 100 ml), or the mixture of amino carboxylic acids (total amino carboxylic acid concentration was less than 5 mM or 65 mg per 100 ml). Cell viability was assessed as the fraction of lactate dehydrogenase retained intracellularly following a 90 minute aerobic incubation. Intracellular calcium activity was assessed in these post-anaerobic cells by the method described in Long and Moore, supra, and expressed in terms of glycogen phosphorylase a activity. […] A minimum of four observations were made and recorded. The results are reported in Table 7 as mean surviving fraction as follows: […]
smiles,measurement,value
"CN(C)CCCN1c2ccccc2Sc2ccc(Cl)cc21 [Chlorpromazine, chlorpromazine, reference compound]",GLYCOGEN PHOSPHORYLASE A ACTIVITY,129.1 ± 36.5 mmols
